# Measurements: article PMC7473865, “Repertoire-scale determination of class II MHC peptide binding via yeast display improves antigen prediction” (Nature Communications, 2020)
# How the values were obtained:
# [1] = molecular target: T1, recombinant HLA-DR402 (HLA-DRA1*01:01, HLA-DRB1*04:02) (Homo sapiens, UniProt P01903+P01911, A100E/A169T/F76Y/K127E/L162R/M171V/N62H/P40V/Q125Y/Q99D/R42H/S133A/S149N/S66Y/V209L/W38E); test: biochemical; format: binding
# T1 construct: poly-histidine (C); made in house; host or cells: High Five (Hi5) insect cells, baculovirus (pAcGP67a)
# [2] = molecular target: T2, recombinant HLA-DR401 (HLA-DRA1*01:01, HLA-DRB1*04:01) (Homo sapiens, UniProt P01903+P01911, A100K/A169T/F76Y/I96L/K127E/L162R/M171V/N62H/P40V/Q125Y/R42H/S133A/S149N/S66Y/V115G/V209L/W38E); test: biochemical; format: binding
# T2 construct: poly-histidine (C); made in house; host or cells: High Five (Hi5) insect cells, baculovirus (pAcGP67a)
structure (smiles),measurement,setting,value
CC[C@H](C)[C@H](NC(=O)[C@@H](NC(=O)[C@H](CCCNC(=N)N)NC(=O)[C@H](CCSC)NC(=O)[C@H](C)NC(=O)[C@H](CCC(N)=O)NC(=O)[C@@H](NC(=O)[C@H](CCSC)NC(=O)[C@H](CCC(N)=O)NC(=O)[C@H](CCCNC(=N)N)NC(=O)[C@H](C)N)C(C)C)[C@@H](C)O)C(=O)NCC(=O)N[C@H](C(=O)N[C@@H](Cc1c[nH]cn1)C(=O)N1CCC[C@H]1C(=O)O)[C@@H](C)O,pIC50,[1],7.45
CC[C@H](C)[C@H](NC(=O)[C@@H](NC(=O)[C@H](CCCNC(=N)N)NC(=O)[C@H](CCSC)NC(=O)[C@H](C)NC(=O)[C@H](CCC(N)=O)NC(=O)[C@@H](NC(=O)[C@H](CCSC)NC(=O)[C@H](CCC(N)=O)NC(=O)[C@H](CCCNC(=N)N)NC(=O)[C@H](C)N)C(C)C)[C@@H](C)O)C(=O)NCC(=O)N[C@H](C(=O)N[C@@H](Cc1c[nH]cn1)C(=O)N1CCC[C@H]1C(=O)N[C@@H](CO)C(=O)N[C@@H](CO)C(=O)N[C@@H](CO)C(=O)N[C@@H](C)C(=O)NCC(=O)O)[C@@H](C)O,pIC50,[2],5.40

# pIC50: −log10 of the molar value.
